Where two headings read alike, the source gives them in different places.
Test system: CYP1A, CYP2B6, CYP2C9, CYP3A
[1] = human hepatocytes, 1 or 10 μmol/L, 48 hours

CYP induction (conclusion in words)	Structure (SMILES)	CYP induction (conclusion in words) [1]
induction of CYP2B6, CYP2C9, and CYP3A	CCN(c1cc(C#CC2CCN(C)CC2)cc(C(=O)NCc2c(C)cc(C)[nH]c2=O)c1C)C1CCOCC1 [Compound 105, N-((4,6-Dimethyl-2-oxo-1,2-dihydropyridin-3-yl)methyl)-3-(ethyl(tetrahydro-2H-pyran-4-yl)amino)-2-methyl-5-((1-methylpiperidin-4-yl)ethynyl)benzamide]	
	CCN(c1cc(C#CCN2CCOCC2)cc(C(=O)NCc2c(C)cc(C)[nH]c2=O)c1C)[C@H]1CC[C@H](N(C)CCOC)CC1 [Compound 2, N-((4,6-dimethyl-2-oxo-1,2-dihydropyridin-3-yl)methyl)-3-(ethyl((trans)-4-((2-methoxyethyl)(methyl)amino)cyclohexyl)amino)-2-methyl-5-(3-morpholinoprop-1-yn-1-yl)benzamide]	no induction (with slightly lower activity)
	CCN(c1cc(-c2ccc(OCCOC)cc2)cc(C(=O)NCc2c(C)cc(C)[nH]c2=O)c1C)[C@H]1CC[C@H](N(C)C)CC1 [Compound 1, N-((4,6-dimethyl-2-oxo-1,2-dihydropyridin-3-yl)methyl)-5-(((trans)-4-(dimethytamino)-cyclohexyl)(ethyl)-amino)-4′-(2-methoxyethoxy)-4-methyl-[1,1′-biphenyl]-3-carboxamide]	no significant induction (except potentially CYP2C9)

— US10098888B2, “Substituted benzene compounds” (Epizyme, Inc., priority 2012, dated 2018)
